From ChEMBL document CHEMBL2177047, “Design, synthesis, and pharmacological evaluation of bis-2-(5-phenylacetamido-1,2,4-thiadiazol-2-yl)ethyl sulfide 3 (BPTES) analogs as glutaminase inhibitors” (J Med Chem, 2012) come the findings set out here.

This test in a line: Cytotoxicity against human P493 cells assessed as growth inhibition by trypan blue dye exclusion assay. In kind it is functional, cell-based. As to conditions: P493-6.

Where only a bound is given, the exact number is not on record here.

A word on the IC50: it is the concentration needed to halve the response being measured. Regarding `Nc1nnc(CCSCCc2nnc(NC(=O)Cc3ccccc3)s2)s1`, the IC50 is at most 20 µM.
